For the compound `CCCCCCCC/C=C\CCCCCCCC(=O)O` [Oleic acid, cis-9-octadecenoic acid], for the setting “0.5% oleic acid and ethanol/water (E/W) in the donor solution”, the “enhancement in delivery rate” value is “about a five-fold enhancement”. Moreover, under “delivery of oxymorphone-HCl, oleic acid 0.25 mg/ml (0.025%), E/W 48/52, 1 mA, pig skin, listed as oleic acid”, the “Enhancement Factor” value is recorded as “no enhancement”.
